Chains of the proteins cited; added tags and fusions are not shown. Residues count along the entry.
UniProt P18507, 40-475 limits assumed: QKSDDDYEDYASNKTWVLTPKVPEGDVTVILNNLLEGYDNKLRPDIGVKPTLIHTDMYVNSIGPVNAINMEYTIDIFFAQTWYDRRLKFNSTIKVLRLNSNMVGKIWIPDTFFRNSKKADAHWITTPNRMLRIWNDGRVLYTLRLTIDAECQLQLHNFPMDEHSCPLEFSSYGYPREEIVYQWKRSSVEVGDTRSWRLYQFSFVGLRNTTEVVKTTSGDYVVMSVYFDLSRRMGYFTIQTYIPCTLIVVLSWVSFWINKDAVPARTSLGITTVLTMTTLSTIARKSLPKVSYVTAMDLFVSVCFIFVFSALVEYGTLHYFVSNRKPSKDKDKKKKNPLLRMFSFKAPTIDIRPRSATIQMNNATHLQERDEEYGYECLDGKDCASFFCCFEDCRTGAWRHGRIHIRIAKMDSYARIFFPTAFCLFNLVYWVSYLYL
UniProt P28472, 26-473 limits assumed: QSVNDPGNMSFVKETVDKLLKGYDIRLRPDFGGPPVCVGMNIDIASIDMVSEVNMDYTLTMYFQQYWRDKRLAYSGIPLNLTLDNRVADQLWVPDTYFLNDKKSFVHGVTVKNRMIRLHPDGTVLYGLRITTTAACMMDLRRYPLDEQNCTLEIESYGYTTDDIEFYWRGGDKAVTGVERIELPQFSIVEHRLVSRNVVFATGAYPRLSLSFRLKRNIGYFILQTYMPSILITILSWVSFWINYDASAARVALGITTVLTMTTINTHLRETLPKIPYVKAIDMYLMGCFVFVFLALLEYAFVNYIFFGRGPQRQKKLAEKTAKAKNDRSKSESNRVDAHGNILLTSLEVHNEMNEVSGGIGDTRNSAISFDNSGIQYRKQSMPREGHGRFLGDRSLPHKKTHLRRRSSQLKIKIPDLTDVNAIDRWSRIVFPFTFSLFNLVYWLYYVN
UniProt P47869, 29-451 limits assumed: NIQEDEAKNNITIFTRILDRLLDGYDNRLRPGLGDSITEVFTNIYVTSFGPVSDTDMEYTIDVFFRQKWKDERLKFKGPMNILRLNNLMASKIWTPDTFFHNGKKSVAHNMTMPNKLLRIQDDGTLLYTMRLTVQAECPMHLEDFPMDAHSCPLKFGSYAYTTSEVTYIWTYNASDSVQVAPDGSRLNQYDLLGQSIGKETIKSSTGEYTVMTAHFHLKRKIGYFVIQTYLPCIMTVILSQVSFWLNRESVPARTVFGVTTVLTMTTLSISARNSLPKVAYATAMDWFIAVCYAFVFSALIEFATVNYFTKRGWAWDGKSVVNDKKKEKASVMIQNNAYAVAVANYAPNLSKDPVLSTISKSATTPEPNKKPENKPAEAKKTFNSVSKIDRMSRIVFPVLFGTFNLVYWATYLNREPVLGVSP

In patent US7282344B2, “Cation conducting GABAA receptors and their use” (Neurosearch A/S, priority 2001, dated 2007):

Molecular target: GABAA receptor α2 β3 γ2 (wt) (Homo sapiens, UniProt P18507+P28472+P47869)
Assay: [^35S]-TBPS binding, wild-type receptor
Conditions: 5 nM [^35S]-TBPS, 0.6 μM GABA

## TBPS
  [^35S] TBPS binding: + ((+) indicates more and (÷) indicates less than 2.5% binding of the wt receptor)
